The chains behind the UniProt entries cited, without tags or fusion partners.
UniProt Q96SD1, whole entry: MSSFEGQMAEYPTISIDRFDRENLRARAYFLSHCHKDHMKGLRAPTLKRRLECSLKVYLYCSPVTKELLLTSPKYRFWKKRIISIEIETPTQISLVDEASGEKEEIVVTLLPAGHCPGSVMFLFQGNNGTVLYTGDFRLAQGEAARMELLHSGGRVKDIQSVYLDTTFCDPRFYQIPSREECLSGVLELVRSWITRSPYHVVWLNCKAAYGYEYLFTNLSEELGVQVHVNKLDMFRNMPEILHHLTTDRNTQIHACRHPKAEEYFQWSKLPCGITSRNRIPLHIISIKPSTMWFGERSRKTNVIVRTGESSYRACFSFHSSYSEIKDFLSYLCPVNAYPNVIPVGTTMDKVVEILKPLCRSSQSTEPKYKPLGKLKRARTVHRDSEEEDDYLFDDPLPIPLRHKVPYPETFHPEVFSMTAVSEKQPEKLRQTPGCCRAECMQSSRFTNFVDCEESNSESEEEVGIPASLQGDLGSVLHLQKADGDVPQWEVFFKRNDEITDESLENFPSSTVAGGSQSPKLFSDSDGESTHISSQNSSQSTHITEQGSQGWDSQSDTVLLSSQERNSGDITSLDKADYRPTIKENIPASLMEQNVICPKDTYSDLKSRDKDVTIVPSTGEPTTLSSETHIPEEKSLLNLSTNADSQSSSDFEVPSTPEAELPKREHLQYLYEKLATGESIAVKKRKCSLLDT

This is a selection; strong and weak results do not stand in their true shares. Some tests of the compounds listed are not included; inactive here does not mean inactive elsewhere. The source made the active and inactive calls.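 How the source made its calls: active means at 10 µM dose, at least 30% inhibition, measured as corrected fluorescence normalized to stimulator and neutral control wells; inactive means the rest.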
Each compound was assayed against Protein artemis (Homo sapiens) (UniProt Q96SD1) (assay: blockers of Artemis DNA hairpin overhang cleavage – biochemical, fluorescence intensity, FAM/BHQ-1 hairpin substrate, primary screen (AID 686954)). Settings: recombinant Artemis, quenched FAM hairpin cleavage fluorescence; at 10 µM; active compounds read high.
With O=C(OC1CN2CCC1CC2)C(CO)(c1ccccc1)c1ccccc1 (stereo not drawn) the inhibition was inactive: 0.71%. CN(C)c1cccc(C(=O)NCC2(N(C)C)CCCCC2)c1 was tested, and the inhibition was inactive: -1.15%. With CC(C)N1C(=O)CC2(CCN(CCOC(=O)C(O)(c3ccccc3)c3ccccc3)CC2)C1=O the inhibition was inactive: 1.46%.
